Experimental data published in PMC6677016, “Biochemical and structural explorations of α-hydroxyacid oxidases reveal a four-electron oxidative decarboxylation reaction” (Acta Crystallographica. Section D, Structural Biology, 2019).

Target: T1, p-Hydroxymandelate oxidase (Hmo) Y128F mutant (Amycolatopsis orientalis, UniProt O52792, Y128F)
T1 sequence (O52792 1-357 Y128F): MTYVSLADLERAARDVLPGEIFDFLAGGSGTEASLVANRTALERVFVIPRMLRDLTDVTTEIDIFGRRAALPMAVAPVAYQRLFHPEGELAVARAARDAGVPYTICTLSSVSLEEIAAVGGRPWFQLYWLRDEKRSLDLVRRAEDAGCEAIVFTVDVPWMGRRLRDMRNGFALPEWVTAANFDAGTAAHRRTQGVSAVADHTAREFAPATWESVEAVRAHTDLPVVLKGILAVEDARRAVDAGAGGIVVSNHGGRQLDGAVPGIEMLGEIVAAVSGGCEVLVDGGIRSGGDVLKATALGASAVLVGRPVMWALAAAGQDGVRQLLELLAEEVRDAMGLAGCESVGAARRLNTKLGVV

O=C(O)Cc1ccccc1 [PA, phenylacetate]
crystal structure (1.75 Å): The Y128F mutant liganded with phenylacetate, which is the product of the four-electron oxidation reaction
